Data: PMC3921447, “Homologous and heterologous desensitization of guanylyl cyclase-B signaling in GH3 somatolactotropes” (Cell and Tissue Research, 2013)

Key:
GC-A [1] = target: T1, GC-A (Rattus norvegicus, UniProt P18910); experiment: Agonist-induced GC-A internalization by confocal immunofluorescence in GH3 cells; type: cell-based; conditions: 100 nM ANP, 0-4 h; n = 3; Fig. 5d-f
T1 construct: Evidence of homologous desensitization of endogenous GC-A- and GC-B-mediated signaling in GH3 cells; endogenous in cells; host or cells: GH3 rat somatolactotrope cells
T1 sequence (P18910 29-1057): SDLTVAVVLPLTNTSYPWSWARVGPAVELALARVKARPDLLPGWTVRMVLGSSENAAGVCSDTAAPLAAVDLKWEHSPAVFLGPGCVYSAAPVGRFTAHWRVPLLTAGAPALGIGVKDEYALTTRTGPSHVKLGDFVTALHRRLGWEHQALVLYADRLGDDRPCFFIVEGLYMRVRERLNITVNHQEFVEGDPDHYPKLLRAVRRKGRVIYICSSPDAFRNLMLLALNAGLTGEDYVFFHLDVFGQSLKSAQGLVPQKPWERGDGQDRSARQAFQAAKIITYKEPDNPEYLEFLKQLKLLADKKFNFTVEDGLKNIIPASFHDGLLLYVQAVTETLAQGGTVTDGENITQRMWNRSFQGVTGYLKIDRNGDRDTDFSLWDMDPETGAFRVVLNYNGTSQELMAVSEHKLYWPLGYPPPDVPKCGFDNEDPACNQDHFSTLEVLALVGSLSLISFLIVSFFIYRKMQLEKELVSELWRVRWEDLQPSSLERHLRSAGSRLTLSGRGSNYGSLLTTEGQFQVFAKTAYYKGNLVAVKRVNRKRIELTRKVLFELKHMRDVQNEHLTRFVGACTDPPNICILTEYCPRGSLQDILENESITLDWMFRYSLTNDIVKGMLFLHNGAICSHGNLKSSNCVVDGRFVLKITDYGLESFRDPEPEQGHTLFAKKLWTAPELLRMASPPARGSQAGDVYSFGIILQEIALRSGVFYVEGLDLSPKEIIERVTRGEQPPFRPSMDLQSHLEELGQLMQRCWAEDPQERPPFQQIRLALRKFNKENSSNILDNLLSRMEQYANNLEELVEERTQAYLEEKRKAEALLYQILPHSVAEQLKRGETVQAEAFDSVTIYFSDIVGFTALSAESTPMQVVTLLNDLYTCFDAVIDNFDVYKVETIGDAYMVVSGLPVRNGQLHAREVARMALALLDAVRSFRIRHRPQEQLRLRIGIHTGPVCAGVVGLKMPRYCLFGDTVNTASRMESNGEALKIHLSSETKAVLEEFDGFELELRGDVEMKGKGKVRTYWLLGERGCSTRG
Procedure: GH3 cells were mounted on poly-L-lysine-coated coverslips and treated with either 0 or 100nM ANP or CNP in PSS during the indicated time points. Following treatment, cells were fixed with 4 % (w/v) formaldehyde for 10 min at room temperature and permeabilized with buffer (1 % [v/v] Tween-20 in 50 ml phosphate-buffered saline [PBS]) before incubation for 10 min at room temperature. Cells were then blocked with […] sodium azide dissolved in 92 % PBS, 3 % FCS and 5 % Tween-20 (v/v) for 20 min at room temperature, washed, then exposed to 1:200 diluted primary antibody solution (GC-A or GC-B, plus 0.1 % FCS and 0.1 % Tween-20) for 16 h at 4 °C. […] Following three PBS washes and a final 5-min PBS immersion at room temperature, the slides were mounted in Vectorshield (Vector Laboratories, Peterborough, UK) on standard VWR (VWR International, Leicestershire, UK) slides ready for analysis. A Leica SPS confocal scanning laser microscope was used to capture the staining, which was analyzed with Leica SPS software (Leica Microsystems, Milton Keynes, UK). […]
Fig. 5 Lack of ligand-dependent internalization of GC-B or GC-A in GH3 somatolactotrope cells. […] GC-A and GC-B immunoreactivity was detected by using Alexa488-conjugated secondary antibodies (green), whereas Alexa635-conjugated phalloidin was used to detect the actin cytoskeleton (red). […]

GC-A [2] = target: T1, GC-A; experiment: Effect of natriuretic peptide pre-treatment on ANP-stimulated (GC-A) cGMP accumulation in GH3 cells; type: cell-based; conditions: Fig. 3b
Procedure: Having established that GC-B signaling but not that of GC-A receptors, underwent rapid homologous desensitization, we next examined the effect of prolonged exposure of each receptor to its specific ligand. GH3 cells pre-treated with either ANP or CNP for 0 (control) to 6 h reduced the response to a subsequent 15-min treatment of ANP or CNP (with IBMX). […] The amount of cGMP measured from the 15-min pre-treatment sample was reduced by 39.6 ± 0.002 % (***P < 0.001). This effect was maintained up to the 6-h pre-treatment with CNP, which was reduced by 37.9 ± 7.1 % compared with the control (***P < 0.001).
Fig. 3 Effect of chronic exposure to CNP and ANP on GC-B- and GC-A-dependent cGMP accumulation in GH3 cells. Cells were initially treated with (a) 100 nM CNP or (b) 100 nM ANP in PSS without IBMX for 0 to 6 h. The medium was removed and replaced with 100 nM CNP (a) or 100 nM ANP (b) for 15 min in the presence of 1 mM IBMX. […]
In similar experiments designed to examine the effect of ANP pre-exposure to GC-A activity, a significant reduction in cGMP accumulation was observed within 30 min of ANP pre-treatment (by 28.9 ± 3.1 % compared with the control, *P < 0.05). […] In order to test the receptor specificity of the observed down-regulation of GC-B upon pre-treatment with CNP and of GC-A upon pre-treatment with ANP, the effects of ANP on GC-B and CNP on GC-A desensitization were determined. […]

CC[C@H](C)[C@@H]1NC(=O)[C@H](CCCNC(=N)N)NC(=O)[C@H](CC(=O)O)NC(=O)[C@H]([C@@H](C)CC)NC(=O)[C@H](CCCNC(=N)N)NC(=O)CNC(=O)CNC(=O)[C@H](Cc2ccccc2)NC(=O)[C@@H](NC(=O)[C@H](CO)NC(=O)[C@H](CO)NC(=O)[C@H](CCCNC(=N)N)NC(=O)[C@H](CCCNC(=N)N)NC(=O)[C@H](CC(C)C)NC(=O)[C@@H](N)CO)CSSC[C@@H](C(=O)N[C@@H](CC(N)=O)C(=O)N[C@@H](CO)C(=O)N[C@@H](Cc2ccccc2)C(=O)N[C@@H](CCCNC(=N)N)C(=O)N[C@@H](Cc2ccc(O)cc2)C(=O)O)NC(=O)CNC(=O)[C@H](CC(C)C)NC(=O)CNC(=O)[C@H](CO)NC(=O)[C@H](CCC(N)=O)NC(=O)[C@H](C)NC(=O)CNC1=O [ANP, atrial natriuretic peptide]
GC-A internalization (GC-A [1]): did not demonstrate any observable GC-B or GC-A internalization | reduction of ANP-stimulated cGMP vs control, 15-min pre-treatment (GC-A [2]; 100 nM ANP pre-treatment 15 min, then 100 nM ANP 15 min with 1 mM IBMX, ns, P > 0.05): did not show a significant reduction in cGMP accumulation compared with the control | duration of the inhibitory effect on ANP-stimulated cGMP (GC-A [2]; 100 nM ANP pre-treatment 30 min to 6 h, *P < 0.05): maintained throughout the 6-h pre-treatment
